Values of other authors in US12440457B2, “Methods of treating suicidality” (Seelos Therapeutics, Inc., priority 2020, dated 2025).

Target: NMDA receptor
Details: unit inferred; Moaddel et al. 2013; read-out: Ki, binding to the NMDA receptor; cited from earlier work

Which Ki does the source give for CNC1(c2ccccc2Cl)CCCCC1=O (racemic) [intranasal racemic ketamine, racemic ketamine] here?
Its Ki is about 1.06 µM.
